# Data reported in patent US12544451B2, “Intracellular delivery compositions” (BIOND BIOLOGICS LTD., priority 2021, dated 2026).
# Like-named read-outs stand apart in the source and are kept apart here.
# How the values were obtained:
# [1] = Conjugate stability under cytoplasmic-like conditions (GSH solution), ELISA of intact conjugate; type: in vitro ADME; details: 10 mM GSH
# Procedure: (§1) Thus, ex vivo stability analysis of this linker was performed in the plasma of mice, monkeys and humans. […] The level of the conjugate was measured over time using an ELISA that measures only intact conjugate and was standardized to conjugate levels when incubated in PBS. […] The stability of the conjugate was also evaluated in a solution of 10 mM GSH, mimicking the GSH levels in the cytoplasm of cells. As expected, and as designed, the disulfide bond conjugating the VHH to the carrier is unstable in the presence of GSH and practically all the conjugate was cleaved within 5 hours.
# Therefore, the stability of the biotin-PEG-HSA conjugate was evaluated in cytoplasmic-like conditions, characterized by the presence of glutathione (10 mM).
# [2] = Conjugate stability in mice plasma (ELISA of intact conjugate); type: in vitro ADME; details: in vitro incubation in mice plasma
# Procedure: as §1, with “cells.” for “cells. As expected, and as designed, the disulfide bond conjugating the VHH to the carrier is unstable in the presence of GSH and practically all the conjugate was cleaved within 5 hours.”
# [3] = Conjugate stability in human plasma (ELISA of intact conjugate); type: in vitro ADME, humans; details: in vitro incubation in human plasma
# Procedure: as §1
# [4] = In vivo PK study of 3rd generation linkers (hindered PEGs and peptide linkers), two side ELISA; details: Balb-c mice, 60 nmol/Kg, plasma
# [5] = mouse, in vivo, 60 nmol/kg
# [6] = In vivo PK study of 2nd generation linker conjugates, two side ELISA (anti VHH/anti HSA); details: Balb-c mice, 60 nmol/Kg, plasma
substance,measurement,setting,value
HSA-PEG4-di-methyl(dm)-S—S-VHH [S1],stability under cytoplasmic-like conditions,[1],decreased rapidly with time
same,stability in mice plasma,[2],some decrease in the conjugate concentration was observed
same,stability in human plasma,[3],not decreased even after 96 h
same,stability in PBS,,stable in PBS
same,AUC0-t,[4],963.1 µg·h/mL
same,C0,[4],124.4 µg/mL
same,Cmax,[4],118.2 µg/mL
same,t1/2,[4],14.2 h
VHH αE7-(G4S)3—C-HSA [S3C],conjugate still detected after 24 hours,[1]; 24 hours,no residual levels
VHH αE7-G4S-G4S-G4L-C-HSA [S3A],stability in mice plasma,[2],good stability in mice plasma
same,AUC0-t,[5],1098.4 µg·h/mL
same,C0,[5],118.3 µg/mL
same,CL,[5],4.525 mL/h/kg
same,Cmax,[5],112.4 µg/mL
same,t1/2,[5],13.5 h
VHH αE7-PEG11-HSA [S4],AUC0-inf,[6],1950.5 µg·h/mL
same,AUC0-t,[6],1856.0 µg·h/mL
same,C0,[6],179.9 µg/mL
same,Cmax,[6],167.2 µg/mL
same,t1/2,[6],28.1 h
